Experiment [1] concerns the target cyclosarin-inhibited human BChE (Homo sapiens, UniProt P06276). In words: Reactivation of cyclosarin-inhibited BChE. The following applies: 0.1 mM oxime; for Observed reactivation rate (kobs), ranking: cyclosarin-inhibited BChE; for Reactivation of cyclosarin-inhibited BChE: in two hours of reactivation.
Experiment [2] has as its target human butyrylcholinesterase (BChE) (Homo sapiens, UniProt P06276).
Experiment [3] has as its target human acetylcholinesterase (AChE) (Homo sapiens, UniProt P22303).

The chains behind the UniProt entries cited, without tags or fusion partners. Residues count along the entry.
UniProt P06276, 29-602 limits assumed: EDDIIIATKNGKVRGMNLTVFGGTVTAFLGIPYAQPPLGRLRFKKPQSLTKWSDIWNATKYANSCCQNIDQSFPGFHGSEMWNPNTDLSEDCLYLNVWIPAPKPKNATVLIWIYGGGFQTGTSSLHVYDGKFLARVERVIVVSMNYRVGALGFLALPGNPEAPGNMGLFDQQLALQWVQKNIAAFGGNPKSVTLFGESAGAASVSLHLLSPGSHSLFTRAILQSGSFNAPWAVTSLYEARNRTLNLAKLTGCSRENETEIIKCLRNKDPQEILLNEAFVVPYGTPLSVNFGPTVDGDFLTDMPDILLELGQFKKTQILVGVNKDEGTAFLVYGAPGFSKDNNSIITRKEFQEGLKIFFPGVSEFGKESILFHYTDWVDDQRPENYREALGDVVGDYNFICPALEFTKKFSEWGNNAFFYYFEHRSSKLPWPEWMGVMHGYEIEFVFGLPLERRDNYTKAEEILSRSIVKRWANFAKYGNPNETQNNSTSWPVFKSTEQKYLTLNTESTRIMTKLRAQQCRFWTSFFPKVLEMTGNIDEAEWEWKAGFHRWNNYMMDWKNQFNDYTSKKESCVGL
UniProt P22303, 32-614 limits assumed: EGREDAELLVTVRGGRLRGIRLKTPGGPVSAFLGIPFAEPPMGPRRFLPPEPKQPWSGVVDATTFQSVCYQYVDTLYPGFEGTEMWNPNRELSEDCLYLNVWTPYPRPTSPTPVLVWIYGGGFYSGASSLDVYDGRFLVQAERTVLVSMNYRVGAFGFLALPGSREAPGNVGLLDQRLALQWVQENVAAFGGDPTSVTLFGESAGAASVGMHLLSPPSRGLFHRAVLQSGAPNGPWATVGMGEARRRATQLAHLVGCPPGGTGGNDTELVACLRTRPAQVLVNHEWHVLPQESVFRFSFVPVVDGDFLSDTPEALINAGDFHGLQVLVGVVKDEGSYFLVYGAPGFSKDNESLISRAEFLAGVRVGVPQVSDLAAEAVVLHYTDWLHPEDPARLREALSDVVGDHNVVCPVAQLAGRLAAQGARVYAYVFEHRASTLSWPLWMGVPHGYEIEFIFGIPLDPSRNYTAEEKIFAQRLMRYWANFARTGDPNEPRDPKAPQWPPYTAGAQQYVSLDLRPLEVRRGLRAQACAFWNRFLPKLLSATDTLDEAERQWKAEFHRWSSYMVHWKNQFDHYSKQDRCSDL

Broadly, the Ki is the equilibrium dissociation constant of an inhibitor or competing ligand from its target. Higher therefore signals lower affinity.

Regarding `COc1ccc(/C=C/c2ccc(/C=N\O)s2)cc1`, in experiment [1], the “Observed reactivation rate (kobs), ranking” value is recorded as “fastest reactivation”. Also, the “Reactivation of cyclosarin-inhibited BChE” value in experiment [1] is “up to 70%”. Also, the Ki was 172 µM in experiment [2] and 54 µM in experiment [3].
Consider `Cc1ccc(/C=C/c2ccc(/C=N\O)s2)cc1`, for which the values for the Ki in experiment [2] and in experiment [3] were 322 µM and 41 µM, respectively.
For `N#Cc1ccc(/C=C/c2ccc(/C=N\O)s2)cc1`, in that order: 44 µM and 158 µM.
The matching figures for `O/N=C/c1ccc(/C=C/c2ccc(Cl)cc2)s1`: 573 µM and 52 µM.
Regarding “cys,syn-5-(4-dimethylaminostyryl)thiophene-2-carbaldehyde oxime”, in experiment [1], the “Reactivator quality (cyclosarin-inhibited BChE)” value was “poor reactivator”. Besides, the Ki in experiment [2] amounted to 89 µM; in experiment [3] it was 39 µM.
Consider “trans,anti-5-(4-chlorostyryl)thiophene-2-carbaldehyde oxime”, for which the “Observed reactivation rate (kobs), ranking” value in experiment [1] is listed as “fastest reactivation”. Besides, the “Reactivation of cyclosarin-inhibited BChE” value in experiment [1] is reported as “up to 70%”. Further, the Ki in experiment [2] stood at 482 µM; in experiment [3], 76 µM.
In the case of “trans,syn-5-(4-methoxystyryl)thiophene-2-carbaldehyde oxime”, the results for the Ki in experiment [2] and in experiment [3] were 271 µM and 67 µM, respectively.
On to “trans,syn-5-(4-methylstyryl)thiophene-2-carbaldehyde oxime”, for which the Ki in experiment [2] was found to be 355 µM; in experiment [3], 46 µM.

For the origin of these results see article PMC8621217, “New Uncharged 2-Thienostilbene Oximes as Reactivators of Organophosphate-Inhibited Cholinesterases” (2021).
